# pEC50: −log10 of the molar value. Read-outs that look alike come from different tables or passages of the source.
# Sequences of proteins named here, by UniProt entry; tags and fusion partners are left off. Residues count along the entry.
# UniProt O60894, 27-148: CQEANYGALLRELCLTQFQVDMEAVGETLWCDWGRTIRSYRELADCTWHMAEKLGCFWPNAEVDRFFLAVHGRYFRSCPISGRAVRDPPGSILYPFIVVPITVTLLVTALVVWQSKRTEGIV
# UniProt Q16602, 23-461: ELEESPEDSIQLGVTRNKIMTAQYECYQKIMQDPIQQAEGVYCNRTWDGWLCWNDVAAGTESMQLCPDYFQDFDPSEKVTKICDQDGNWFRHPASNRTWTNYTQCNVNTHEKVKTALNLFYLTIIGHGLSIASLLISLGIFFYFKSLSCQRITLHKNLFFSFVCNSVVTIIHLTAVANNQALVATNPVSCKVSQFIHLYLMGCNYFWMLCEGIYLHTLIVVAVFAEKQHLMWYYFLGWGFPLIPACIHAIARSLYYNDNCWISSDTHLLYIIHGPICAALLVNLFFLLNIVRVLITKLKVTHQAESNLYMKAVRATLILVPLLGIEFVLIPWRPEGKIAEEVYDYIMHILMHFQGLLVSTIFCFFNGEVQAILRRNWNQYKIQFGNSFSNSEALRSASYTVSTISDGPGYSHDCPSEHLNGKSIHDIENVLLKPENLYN
# How the values were obtained:
# brain vasculature [1] = assay: MRI of hemodynamic response to CGRP in the brains of live animals; type: in vivo, rat
# Experimental: (§1) Control infusion of cerebrospinal fluid on the right side produced no significant changes; group data (n=4) are quantified in FIG. 3D.
# In some embodiments, this molecular imaging approach is referred to as “engineered hemodynamic” contrast. In some embodiments, the approach is useful for ultrasensitive imaging both in TBI and in other diseases associated with BBB dysfunction.
# Efficacy for imaging BBB leakage in TBI is tested using rats subjected to pressure shocks in a blast tube shown to simulate IED exposure in humans. This fully validated model enables sublethal blasts with quantitatively controlled pressure waveforms to be reproducibly administered with 100% survival of subjects. […] Data is transformed and processed in Matlab, using analysis routines already established for evaluation of hemodynamic responses.
# exposed rat cortex = assay: Optical imaging of exposed cortex during CGRP infusion (cranial window); type: in vivo; details: infusion to exposed rat cortex, cranial window preparation
# Excerpt: as §1
# brain vasculature [2] = details: intravenously injected, intact BBB; cited from earlier work
# intracerebral arterioles = details: cited from earlier work
# [3] = biological target: T1, heterodimeric CGRP receptor, comprised of human CALCRL and RAMP1 (Homo sapiens, UniProt O60894+Q16602); assay: Cell-based bioassay of CGRP receptor activation (HEK293FT CGRP reporter cells, cAMP-dependent luciferase)
# T1 construct: expressed in transfected cells; host or cells: HEK293FT (lentiviral transduction, antibiotic selection)
# Excerpt: HEK293FT cell lines carrying the following lentiviral constructs were used:
# Glo22F is a gene, offered by Promega Corp., encoding an engineered luciferase whose activity is allosterically modulated by cyclic AMP (Fan et al. “Novel Genetically Encoded Biosensors Using Firefly Luciferase”. ACS Chem. Biol., 2008, 3 (6), pp 346-351 DOI: 10.1021/cb8000414). This luminescent cAMP reporter system offers relatively fast readouts from live cells and strong signal-to-noise ratio.
Substance,"MRI signal change (brain vasculature [1]; 100 nM infusion through cannula in left hemisphere, FIG. 3C, Example 1)","MRI signal change (brain vasculature [1]; 500 nM infusion through cannula in left hemisphere, FIG. 3C legend)","signal changes, intravascular delivery with perturbed BBB (brain vasculature [1]; delivered intravascularly to animals with perturbed BBB)",dynamic MRI signal changes (brain vasculature [1]; intracranial infusion of 0.1 μM peptide solution),"contrast in MRI (brain vasculature [1]; intracranial injection, nanomolar-scale concentrations)","contrast in MRI, intravascular administration (brain vasculature [1]; intravascular administration)",signal changes after peripheral injection (brain vasculature [1]; peripherally injected into tail vein),optical imaging changes (exposed rat cortex),vasodilatory effect in the brain vasculature (brain vasculature [2]),"pEC50 (intracerebral arterioles; intracerebral arterioles, read-out: 50%-effective concentration (EC50) for vasodilation)",pEC50 (intracerebral arterioles; read-out: concentration of half-maximal effect (vasodilator)),"effect of terminal modification on potency (in words) ([3]; FIG. 4C, 4D)",activation of the CGRP receptor ([3]; cell culture),potency of CGRP receptor activation ([3]; cell culture)
"ACDTATCVTHRLAGLLSRSGGVVKNNFVPTNVGSKAF [CGRP, synthetic CGRP from Sigma]",significant signal change,significant signal change,analogous signal changes,several percent,detectable contrast,no contrast is induced,no detectable signal changes,detected,no detectable vasodilatory effect,> 8.00,> 8.00,,,
CGRP-Gly: human alpha CGRP extended with a single glycine residue in lieu of C-terminal amidation (SEQ ID NO: 15) (ACDTATCVTHRLAGLLSRSGGVVKNNFVPTNVGSKAFG; haCGRP-Gly),,,,,,,,,,,,partially restores potency,fully activates,nanomolar
